Reference: patent publication US8143426B2, “IAP inhibitors” (TetraLogic Pharmaceuticals Corporation, priority 2006, dated 2012)

Sequences of proteins named here, by UniProt entry; tags and fusion partners are left off. Residues count along the entry.
UniProt P98170, 241-356 limits assumed: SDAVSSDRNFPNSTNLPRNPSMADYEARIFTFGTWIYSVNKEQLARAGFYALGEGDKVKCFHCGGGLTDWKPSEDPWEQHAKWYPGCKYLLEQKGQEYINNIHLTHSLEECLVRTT

Molecular target: XIAP BIR3 (Homo sapiens, UniProt P98170)
Test: Fluorescence polarization binding of IAP antagonists to IAP-BIR3 (competition with AbuRPF-K(5-Fam)-NH2)
Conditions: Table 1, monomeric IAP antagonists (sugar-modified)
Protocol: The binding affinity of illustrative compounds of the present invention to an IAP was determined substantially as described by Nikolovska-Coleska, Z. et. al. (Analytical Biochemistry (2004), vol. 332:261-273) using a variety of fluorogenic substrates and is reported as a Kd value. Briefly, various concentrations of IAP antagonists were mixed with 5 nM fluorescently labeled peptide (AbuRPF-K(5-Fam)-NH2) and 40 nM of an IAP-BIR3 for 15 min at RT in […] of 0.1M Potassium Phosphate buffer, pH 7.5 containing […] bovine g-globulin. Following incubation, the polarization values (mP) were measured on a Victor2V using a 485 nm excitation filter and a 520 nm emission filter. IC50 values were determined from the plot using nonlinear least-squares analysis using GraphPad Prism.

A Kd of 0.1 to 1 µM was found for `CN[C@@H](C)C(=O)N[C@H](C(=O)N1CCC[C@H]1Cc1c(-c2ccc(F)cc2)n([C@H]2O[C@@H](C)[C@@H](O)[C@@H](O)[C@@H]2O)c2ccc(C)cc12)C(C)(C)C` in this work.

A Kd of 0.1 to 1 µM was found for `CN[C@@H](C)C(=O)N[C@H](C(=O)N1C[C@@H](O)C[C@H]1Cc1c(-c2ccc(F)cc2)n([C@H]2O[C@@H](C)[C@@H](O)[C@@H](O)[C@@H]2O)c2ccc(C)cc12)[C@@H](C)OC` in this work.

For `CN[C@@H](C)C(=O)N[C@H](C(=O)N1CCC[C@H]1Cc1cn([C@@H]2OC[C@@H](O)[C@H](O)[C@H]2O)c2cc(F)ccc12)C(C)C`, the Kd was < 0.1 µM.

A Kd of 0.1 to 1 µM was found for `CN[C@@H](C)C(=O)N[C@H](C(=O)N1CCC[C@H]1Cc1cn([C@H]2O[C@@H](C)[C@@H](O)[C@@H](O)[C@@H]2O)c2c(C)cccc12)C(C)C` in this work.

A Kd of 0.1 to 1 µM was found for `CN[C@@H](C)C(=O)N[C@H](C(=O)N1CCC[C@H]1Cc1c(-c2ccc(F)cc2)n([C@H]2O[C@@H](C)[C@@H](O)[C@@H](O)[C@@H]2O)c2ccc(C)cc12)[C@@H](C)OC` in this work.

A Kd of 0.1 to 1 µM was found for `CN[C@@H](C)C(=O)N[C@H](C(=O)N1CCC[C@H]1Cc1cn([C@@H]2OC[C@@H](O)[C@H](O)[C@H]2O)c2cc(F)ccc12)C1CCCCC1` in this work.

A Kd of 0.1 to 1 µM was found for `CN[C@@H](C)C(=O)N[C@H](C(=O)N1C[C@@H](O)C[C@H]1Cc1c(-c2ccc(F)cc2)n([C@H]2O[C@@H](C)[C@@H](O)[C@@H](O)[C@@H]2O)c2ccc(C)cc12)C(C)(C)C` in this work.
